By UniProt entry, the sequences of proteins in these tests, tags left out.
UniProt Q01827, whole entry: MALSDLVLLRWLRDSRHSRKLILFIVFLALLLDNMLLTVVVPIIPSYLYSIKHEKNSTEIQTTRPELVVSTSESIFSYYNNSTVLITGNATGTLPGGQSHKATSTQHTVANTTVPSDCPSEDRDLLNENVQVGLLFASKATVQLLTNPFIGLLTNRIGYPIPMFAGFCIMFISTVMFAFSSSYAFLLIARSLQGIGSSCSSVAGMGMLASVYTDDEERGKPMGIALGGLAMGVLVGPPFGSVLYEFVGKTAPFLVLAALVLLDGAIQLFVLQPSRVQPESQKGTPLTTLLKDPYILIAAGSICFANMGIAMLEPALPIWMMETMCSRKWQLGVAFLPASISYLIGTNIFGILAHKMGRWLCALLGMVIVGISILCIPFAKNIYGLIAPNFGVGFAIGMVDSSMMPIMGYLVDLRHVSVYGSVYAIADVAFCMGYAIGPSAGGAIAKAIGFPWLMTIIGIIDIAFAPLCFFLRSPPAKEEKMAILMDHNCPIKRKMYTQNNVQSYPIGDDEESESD

According to paper PMC6191844 (European journal of medicinal chemistry, 2011):

Molecular target: VMAT2 (Rattus norvegicus, UniProt Q01827)
Conditions: ratio of Ki values

COc1cc2c(cc1OC)[C@H]1CC(=O)[C@H](CC(C)C)CN1CC2 [(+)-1, (3R,11bR)-Tetrabenazine]
fold more potent than its levorotatory enantiomer at VMAT2: 8000 fold
